The text below walks through data of ChEMBL document CHEMBL5365419, “Identification of a Protein Arginine Methyltransferase 7 (PRMT7)/Protein Arginine Methyltransferase 9 (PRMT9) Inhibitor” (J Med Chem, 2023).

The source made the active and inactive calls. No cut-off for these calls is given here.

The assay has as its target T1, Protein arginine N-methyltransferase 9 (Homo sapiens) (UniProt Q6P2P2).
T1 sequence (whole entry): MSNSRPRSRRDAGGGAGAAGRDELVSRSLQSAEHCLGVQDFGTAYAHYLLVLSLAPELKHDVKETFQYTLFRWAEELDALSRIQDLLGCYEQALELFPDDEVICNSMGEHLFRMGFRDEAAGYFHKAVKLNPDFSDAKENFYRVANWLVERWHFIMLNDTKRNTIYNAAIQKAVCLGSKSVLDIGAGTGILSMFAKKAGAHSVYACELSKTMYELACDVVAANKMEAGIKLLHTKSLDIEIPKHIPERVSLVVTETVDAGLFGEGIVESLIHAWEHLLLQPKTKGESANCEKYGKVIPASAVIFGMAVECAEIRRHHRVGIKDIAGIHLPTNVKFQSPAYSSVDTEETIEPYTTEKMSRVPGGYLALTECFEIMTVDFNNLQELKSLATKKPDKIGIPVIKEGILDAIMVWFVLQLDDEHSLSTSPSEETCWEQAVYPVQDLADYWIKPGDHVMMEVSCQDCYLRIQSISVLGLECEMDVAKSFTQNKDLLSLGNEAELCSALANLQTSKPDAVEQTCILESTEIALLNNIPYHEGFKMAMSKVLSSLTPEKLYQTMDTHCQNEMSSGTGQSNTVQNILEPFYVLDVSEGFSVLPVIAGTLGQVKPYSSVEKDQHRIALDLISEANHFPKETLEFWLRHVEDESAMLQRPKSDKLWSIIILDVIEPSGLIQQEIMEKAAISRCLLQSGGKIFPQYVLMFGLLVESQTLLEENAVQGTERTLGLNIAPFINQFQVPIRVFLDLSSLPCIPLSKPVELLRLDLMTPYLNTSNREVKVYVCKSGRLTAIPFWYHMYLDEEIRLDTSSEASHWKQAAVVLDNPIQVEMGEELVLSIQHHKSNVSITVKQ
Nature of the assay: Inhibition of human GST-fused PRMT9 expressed in Escherichia coli upto 500 uM using human GST-SF3B2 (401 to 550 residues) peptide as substrate and human histone H2B as cosubstrate incubated under 37 degreeC in presence of 3H-SAM by SDS-PAGE based densitometric analysis.

As to `O=C(NC[C@H](O)CN1CCc2ccccc2C1)c1cc(NC2COC2)ncn1`, the inhibition result was “inactive”.
